Assay [1] can be described thus: Antiproliferative activity in Chinese hamster R2 cells deficient in RFC, PCFT, and FRalpha assessed as reduction in cell growth after 96 hrs by Cell-Titer Blue assay. Particulars: Cricetulus griseus, R2, 96 h. The class given is cell-based.
Assay [2] can be described thus: Binding affinity to human FRbeta expressed in Chinese hamster D4 cells assessed as antiproliferative activity measured as reduction in cell growth after 96 hrs by Cell-Titer Blue assay.
Assay [3] in a line: Binding affinity to human FRalpha expressed in Chinese hamster RT16 cells assessed as antiproliferative activity measured as reduction in cell growth after 96 hrs by Cell-Titer Blue assay.

Structures are written as SMILES. Some results are limits rather than exact numbers.

The term IC50 denotes the midpoint of a concentration-inhibition curve.

For the compound `Nc1nc2[nH]c(CCCCc3ccc(C(=O)N[C@@H](CCC(=O)O)C(=O)O)c(F)c3)cc2c(=O)[nH]1`, the concentration for half-maximal inhibition (IC50) in assay [1] was greater than 1000 nM.

Regarding `Nc1nc2[nH]c(CCCc3csc(C(=O)N[C@@H](CCC(=O)O)C(=O)O)c3)cc2c(=O)[nH]1`, the values for the IC50 in assay [2] and in assay [3] were 0.34 nM and 0.33 nM, respectively.
